Assay: Other, Phenomenex Kinetex PFP, 100 × 4.6 mm, 5 µm, 45 °C, 0.6 mL/min, estimated dead time 1.8 min; A: water + 0.1% trifluoroacetic acid, pH 2; B: methanol; gradient (min/%B) 0/40 20/72 21/40
Details: stereoisomer not certain

- LC retention time: 13.8 min
Compound: COc1cc(-c2[o+]c3cc(O)cc(O)c3cc2O)ccc1O [Peonidin]
